Source: patent publication EP4834909A1, “CRYSTAL FORM OF COMPOUND CONTAINING TRICYCLIC HETEROARYL, AND PREPARATION METHOD THEREFOR AND USE THEREOF” (dated 2026)

Columns and labels:
[1] = Micromeritic property testing; details: crystal form I sample from Example 3
Procedure: The micromeritic properties of the crystal form I sample from Example 3 were tested.

[2] = Solubility test of crystal form in water; details: class per Pharmacopoeia of the People's Republic of China (2020 Edition, Volume II)
From the text: Appropriate amounts of the amorphous sample from the Preparative Example, the crystal form I sample from Example 3, and the crystal form II sample from Example 5 were weighed and subjected to solubility tests in water, respectively.

[3] = Stability test of crystal form (high temperature, high humidity, light exposure); details: for stability (summary in words): high temperature (60°C), high humidity (25°C/75% RH), light exposure (4500 ± 500 lux), 5 and 10 days
Procedure: Appropriate amounts of the amorphous sample from the Preparative Example, the crystal form I sample from Example 3, and the crystal form II sample from Example 5 were weighed and placed under conditions of high temperature (60°C), high humidity (25°C/75% RH) and light exposure (4500 ± 500 lux) for 5 and 10 days, respectively. The resulting data were compared with those at day 0. Table 4: Stability test results for amorphous form, crystal form I, and crystal form II

[4] = Hygroscopicity test of crystal form; details: 25°C ± 1°C for 24 h; for average weight gain: desiccator with saturated ammonium chloride or ammonium sulfate solution
Procedure: Appropriate amounts of the amorphous sample from the Preparative Example, the crystal form I sample from Example 3, and the crystal form II sample from Example 5 were weighed. In accordance with the Guidelines for the Testing of Hygroscopicity of Drugs, the samples were placed in a suitable constant-temperature desiccator (with a saturated solution of ammonium chloride or ammonium sulfate at the bottom) at 25°C ± 1°C for 24 h to perform the hygroscopicity test.

[5] = Milling stability of crystal form I (air jet milling, XRPD); details: jet mill, feed gas pressure 6-7 bar, pulverizing gas pressure 6-7 bar
From the text: An appropriate amount of the crystal form I sample from Example 3 was pulverized using a laboratory-scale jet mill (feed gas pressure: 6-7 bar, pulverizing gas pressure: 6-7 bar). The pulverized sample was subjected to XRPD detection, and no change in crystal form was observed. Table 5: X-ray powder diffraction peaks of crystal form I after air jet milling

[6] = High humidity (25°C/75% RH), 5 days
[7] = High humidity (25°C/75% RH), 10 days
[8] = High temperature (60°C), 5 days
[9] = High temperature (60°C), 10 days
[10] = Light exposure (4500 ± 500 lux), 5 days
[11] = Light exposure (4500 ± 500 lux), 10 days

Row | SMILES | Appearance [3, 6] | Crystal form [3, 6] | Maximum single impurity (%) [3, 6] [%] | Total impurity (%) [3, 6] [%] | Appearance [3, 7] | Crystal form [3, 7] | Maximum single impurity (%) [3, 7] [%] | Total impurity (%) [3, 7] [%] | Appearance [3, 8] | Crystal form [3, 8] | Maximum single impurity (%) [3, 8] [%] | Total impurity (%) [3, 8] [%] | Appearance [3, 9] | Crystal form [3, 9] | Maximum single impurity (%) [3, 9] [%] | Total impurity (%) [3, 9] [%] | Appearance [3, 10] | Crystal form [3, 10] | Maximum single impurity (%) [3, 10] [%] | Total impurity (%) [3, 10] [%] | also measured
1 | NC(=O)c1cnc(Nc2ccc3c(c2)OC[C@H]2CN(S(=O)(=O)C4CC4)CCN32)nc1NC1CC1 [Crystal form I] | Off-white solid | Unchanged | 0.02 | 0.04 | Off-white solid | Unchanged | 0.02 | 0.05 | Off-white solid | Unchanged | 0.02 | 0.05 | Off-white solid | Unchanged | 0.02 | 0.05 | Off-white solid | Unchanged | 0.02 | 0.05 | Angle of repose [1]: 38°; Bulk density [1]: 0.272 g/mL; Hausner ratio [1]: 1.30; Tap density [1]: 0.354 g/mL; solubility in water (solubility class) [2]: fell within the same solubility class; Appearance [3, 11]: Off-white solid; Crystal form [3, 11]: Unchanged; Maximum single impurity (%) [3, 11]: 0.02%; Total impurity (%) [3, 11]: 0.06%; Appearance ([3]; day 0): Off-white solid; Maximum single impurity (%) ([3]; day 0): 0.01%; Total impurity (%) ([3]; day 0): 0.02%; stability (summary in words) [3]: essentially no changes in appearance, related substances, or crystal form; hygroscopicity (classification) [4]: slight hygroscopicity; average weight gain [4]: 0.8%; crystal form after air jet milling (XRPD) [5]: no change in crystal form was observed
2 | NC(=O)c1cnc(Nc2ccc3c(c2)OC[C@H]2CN(S(=O)(=O)C4CC4)CCN32)nc1NC1CC1 [Amorphous form] | Pale yellow solid | Unchanged | 1.51 | 7.03 | Pale yellow solid | Unchanged | 1.46 | 7.85 | Pale yellow solid | Unchanged | 1.54 | 6.92 | Pale yellow solid | Unchanged | 3.17 | 9.71 | Pale yellow solid | Unchanged | 1.45 | 7.16 | solubility in water (solubility class) [2]: fell within the same solubility class; Appearance [3, 11]: Pale yellow solid; Crystal form [3, 11]: Unchanged; Maximum single impurity (%) [3, 11]: 1.63%; Total impurity (%) [3, 11]: 8.00%; Appearance ([3]; day 0): Pale yellow solid; Maximum single impurity (%) ([3]; day 0): 1.58%; Total impurity (%) ([3]; day 0): 6.91%; stability (summary in words) [3]: underwent degradation under conditions of high temperature, high humidity, and light exposure; average weight gain ([4]; listed as amorphous sample): 3.0%; hygroscopicity (classification) ([4]; listed as amorphous sample): hygroscopicity
3 | NC(=O)c1cnc(Nc2ccc3c(c2)OC[C@H]2CN(S(=O)(=O)C4CC4)CCN32)nc1NC1CC1 [Crystal form II] | Off-white solid | Unchanged | 0.04 | 0.06 | Off-white solid | Unchanged | 0.04 | 0.05 | Off-white solid | Transformed | 0.04 | 0.06 | Off-white solid | Transformed | 0.03 | 0.04 | Off-white solid | Transformed | 0.04 | 0.05 | Appearance [3, 11]: Off-white solid; Crystal form [3, 11]: Transformed; Maximum single impurity (%) [3, 11]: 0.04%; Total impurity (%) [3, 11]: 0.05%; Appearance ([3]; day 0): Off-white solid; Crystal form ([3]; day 0): Unchanged; Maximum single impurity (%) ([3]; day 0): 0.03%; Total impurity (%) ([3]; day 0): 0.04%; stability (summary in words) [3]: the crystal form underwent a transformation under conditions of high-temperature and light exposure; hygroscopicity (classification) [4]: significant hygroscopicity; average weight gain [4]: 47.9%
